Earlier results, collected in US20170298446A1, “BIOMARKERS OF BRUTON TYROSINE KINASE INHIBITOR RESISTANCE” (OHIO STATE INNOVATION FOUNDATION, priority 2014, published 2017).

By UniProt entry, the sequences of proteins in these tests, tags left out. Where a name states a change or a piece, a line headed by the entry shows the natural chain unless it says otherwise.
UniProt Q06187: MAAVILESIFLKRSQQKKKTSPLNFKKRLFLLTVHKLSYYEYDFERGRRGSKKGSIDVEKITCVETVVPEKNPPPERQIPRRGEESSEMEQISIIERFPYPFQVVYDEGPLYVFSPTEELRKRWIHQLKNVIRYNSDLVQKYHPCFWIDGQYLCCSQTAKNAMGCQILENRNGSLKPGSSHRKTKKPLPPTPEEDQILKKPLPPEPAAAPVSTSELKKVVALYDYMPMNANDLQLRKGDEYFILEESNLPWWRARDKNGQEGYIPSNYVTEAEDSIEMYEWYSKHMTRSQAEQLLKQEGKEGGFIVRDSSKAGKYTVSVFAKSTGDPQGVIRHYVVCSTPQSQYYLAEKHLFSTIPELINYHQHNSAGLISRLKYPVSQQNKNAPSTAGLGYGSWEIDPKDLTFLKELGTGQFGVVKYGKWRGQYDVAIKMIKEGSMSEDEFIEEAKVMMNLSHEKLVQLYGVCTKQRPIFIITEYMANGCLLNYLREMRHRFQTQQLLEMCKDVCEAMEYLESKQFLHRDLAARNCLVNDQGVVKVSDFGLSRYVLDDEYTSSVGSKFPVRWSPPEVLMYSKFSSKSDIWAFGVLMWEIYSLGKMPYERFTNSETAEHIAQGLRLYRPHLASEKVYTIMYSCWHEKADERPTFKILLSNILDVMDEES

Legend:
BTK [1] = target: T1, BTK (Homo sapiens, UniProt Q06187); details: biochemical kinase / enzymology assays; read-out: IC50 against BTK
BTK [2] = target: T1, BTK; details: cellular assays; read-out: IC50 towards BTK in cellular assays

Q: With `C=CC(=O)Nc1cccc(Nc2nc(Nc3ccc(Oc4ccnc(C(=O)NC)c4)cc3)ncc2F)c1` [CNX-774, 4-(4-((4-((3-acrylamidophenyl)amino)-5-fluoropyrimidin-2-yl)amino)phenoxy)-N-methylpicolinamide] as the molecule, how does the pIC50 (BTK [1]) read?
A: > 9.00

Q: What about the pIC50 (BTK [2]) of the same molecule?
A: 8.00 to 9.00

pIC50: −log10 of the molar value. Like-named read-outs stand apart in the source and are kept apart here.
